{
  "source": "PubChem BioAssay AID1775",
  "about": "(NMMLSC, 2009)",
  "note": "This is a selection; strong and weak results do not stand in their true shares. Calls of active or inactive are those of the source. Cut-off read from the data, not from the text of the source: active = fluorescence above about 47; inactive = the rest.",
  "data": [
    {"assay": "green autofluorescence of compounds with avidin beads – biophysical, 488/530 nm, flow cytometry, artefact control, profiling panel (AID 1775)", "conditions": "compound fluorescence 488/530 nm, at 10 µM, stronger effect = higher value", "values": [
      {"smiles": "COc1cc(OC)cc(C(=O)NCC2(N3CCOCC3)CCCCC2)c1", "fluorescence (KMESF)": "inactive: 11"},
      {"smiles": "CCC(CO)(C(=O)OC1CN2CCC1CC2)c1ccccc1", "note": "(centres undefined)", "fluorescence (KMESF)": "inactive: 22"},
      {"smiles": "CCCOc1ccc(C)cc1CN(CCCl)CCCl", "fluorescence (KMESF)": "inactive: 10"},
      {"smiles": "CCOc1ncccc1C(=O)NCC1(N2CCOCC2)CCCCC1", "fluorescence (KMESF)": "inactive: 3"},
      {"smiles": "CC(C)(C)OC(=O)N1CCC(Nc2ccccc2)CC1", "fluorescence (KMESF)": "inactive: 12"},
      {"smiles": "CCN1CCC(Nc2cccc(F)c2)CC1", "fluorescence (KMESF)": "inactive: 5"},
      {"smiles": "CN(C)c1ccc(C(=O)NCC2(N3CCCCC3)CCCCC2)cc1", "fluorescence (KMESF)": "inactive: 12"},
      {"smiles": "Fc1ccccc1NC1CCN(Cc2ccccc2)CC1", "fluorescence (KMESF)": "inactive: 20"},
      {"smiles": "c1ccc(CN2CCC(Nc3ccccc3)CC2)cc1", "fluorescence (KMESF)": "inactive: 7"},
      {"smiles": "N#Cc1ccc(C(=O)NCC2(N3CCCCC3)CCCCC2)cc1", "fluorescence (KMESF)": "inactive: 11"},
      {"smiles": "N/C(=N\\O)c1c(N)no[n+]1[O-]", "fluorescence (KMESF)": "inactive: 6"},
      {"smiles": "O=C(OC1CN2CCC1CC2)C1c2ccccc2C=Cc2ccccc21", "note": "(centres undefined)", "fluorescence (KMESF)": "inactive: 3"},
      {"smiles": "COc1ccc(C(=O)NCC2(N3CCOCC3)CCCCC2)cc1OC", "fluorescence (KMESF)": "inactive: 41"},
      {"smiles": "CC(C)c1ccc(NC2CCN(C(=O)OC(C)(C)C)CC2)cc1", "fluorescence (KMESF)": "inactive: 20"},
      {"smiles": "CN(C)c1cccc(C(=O)NCC2(N3CCCCC3)CCCCC2)c1", "fluorescence (KMESF)": "inactive: 8"},
      {"smiles": "COc1ccc(CN(CCCl)CCCl)cc1Cl", "fluorescence (KMESF)": "inactive: 12"},
      {"smiles": "O=C(NCC1(N2CCOCC2)CCCCC1)c1cc(=O)[nH]c2ccccc12", "fluorescence (KMESF)": "inactive: 21"},
      {"smiles": "COc1ccc(NC2CCN(C(=O)OC(C)(C)C)CC2)cc1", "fluorescence (KMESF)": "inactive: 14"},
      {"smiles": "CN1CCN(CCOC(=O)C(O)(c2ccccc2)c2ccccc2)CC1", "fluorescence (KMESF)": "inactive: 15"},
      {"smiles": "N#CC1(Nc2ccccc2)CCN(CCc2ccccc2)CC1", "fluorescence (KMESF)": "inactive: 19"},
      {"smiles": "O=C(NCC1(N2CCCCC2)CCCCC1)c1cccc([N+](=O)[O-])c1", "fluorescence (KMESF)": "inactive: 6"},
      {"smiles": "Cc1ccc(OCC(C)C)c(CN(CCCl)CCCl)c1", "fluorescence (KMESF)": "inactive: 6"},
      {"smiles": "CCOc1ccc(C)cc1CN(CCCl)CCCl", "fluorescence (KMESF)": "inactive: 6"},
      {"smiles": "COc1ccc(NC2CCN(CCc3ccccc3)CC2)c(OC)c1", "fluorescence (KMESF)": "inactive: 37"},
      {"smiles": "O=C(NCC1(N2CCOCC2)CCCCC1)c1cc2ccccc2o1", "fluorescence (KMESF)": "active: 62"},
      {"smiles": "O=C(OC1CN2CCC1CC2)C1c2ccccc2Oc2ccccc21", "note": "(centres undefined)", "fluorescence (KMESF)": "inactive: 25"},
      {"smiles": "N#CC1(Nc2ccccc2)CCN(Cc2ccccc2)CC1", "fluorescence (KMESF)": "inactive: 8"},
      {"smiles": "CCOC(=O)N1CCC(Nc2ccc(OC)cc2)CC1", "fluorescence (KMESF)": "inactive: 8"},
      {"smiles": "COc1ccc(C(=O)NCC2(N3CCCCC3)CCCCC2)c(OC)c1OC", "fluorescence (KMESF)": "inactive: 10"}
    ]}
  ]
}
